Literature values, collected in patent publication US7109331B2, “5H-pyrrolo[3,2-d]pyrimidine nucleoside metabolism inhibitors” (Industrial Research Limited, priority 2000, dated 2006).

Test system: contact sensitivity ear swelling
Details: mice

In the case of `Nc1nc2c(Cc3cccnc3)c[nH]c2c(=O)[nH]1` [9-(3-pyridylmethyl)-9-deazaguanine], the “oral dose required for activity” value is listed as 50 mg/kg.
